From patent US11407737B2, “Inhibitors of RAF kinases” (Kinnate Biopharma Inc., priority 2020, dated 2022)

Biological target: human RAF1 (Homo sapiens (Human), UniProt P04049)
Assay: Protein kinase assay (radiometric 33P-ATP, MEK1 (K97R) substrate), RAF-1
Format: biochemical
Settings: human MEK1 (K97R) substrate 3 micromolar, ATP 10 micromolar, 3-fold serial dilution starting at 10 micromolar
Description: Example 1: Kinase Assay Protocol
Assay platform was used to measure kinase/inhibitor interactions as described previously (Anastassiadis et al., 2011). In brief, for each reaction, kinase and substrate were mixed in a buffer containing 20 mM HEPES (pH 7.5), 10 mM MgCl2, 1 mM EGTA, 0.02% Brij35, 0.02 mg/mL BSA, 0.1 mM Na3VO4, 2 mM DTT, and 1% DMSO. All compounds were solubilized in DMSO. Compounds were then added to each reaction mixture via acoustic dispense using an ECHO 550 nanoliter dispenser. For human RAF1 testing, human MEK1 (K97R) was used as a substrate at a concentration of 3 micromolar, with a final ATP concentration of 10 micromolar. For human BRAF testing, human MEK1 (K97R) was used as a substrate at 1 micromolar concentration, with a final ATP concentration of 25 micromolar. Compounds were tested in 10-dose IC50 mode with a 3-fold serial dilution starting at 10 micromolar. After a 20-min incubation, ATP (Sigma-Aldrich, St. Louis, Mo. 63178) and [g33P] ATP (specific activity 10 microCi/microliter) purchased at PerkinElmer (Boston, Mass., 02118 Cat #BLU 003H250UC) were added at a final total concentration of 10 mM. […] The percent remaining kinase activity relative to a vehicle-containing (DMSO) kinase reaction was calculated for each kinase/inhibitor pair. IC50 values were calculated using Prism 5 (GraphPad).

Q: With `Cc1ccc(NC(=O)N2CC[C@@H](CC(F)(F)F)C2)cc1-c1cc(C(=O)N(C)C)nc(N2CCOCC2)c1` [Example 19, N, N-dimethyl-4-[2-methyl-5-[(3S)-3-(2,2,2-trifluoroethyl)pyrrolidine-1-carbonylamino]phenyl]-6-(morpholin-4-yl)pyridine-2-carboxamide] as the molecule, how does the IC50 read?
A: The IC50 was < 1 nM.
